AlphaSeq binding of Ab-95 light chain variants to a spike HR2 peptide

Data: MIT Lincoln Laboratory AlphaSeq set, Engelhart et al. 2022, doi:10.1038/s41597-022-01779-4, as distributed in FLAb.

Antigen: PDVDLGDISGINAS, a 14-residue peptide of the SARS-CoV-2 spike HR2 region.

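The library (AAYL52) carries one to three amino acid substitutions per variant, with no insertions or deletions. In AlphaSeq, yeast of one mating type display the scFv and yeast of the other type display the target. After mating in shaken culture at 30 °C for 16 h, diploids were selected and their barcode pairs sequenced. Scores were corrected for input abundance and mapped to Kd with protein pairs of known affinity run in the same pool. There are three technical replicates.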

Ab-95 is the parent antibody, in scFv form: VH, then the linker GGGGSGGGGSGGGGS, then VL. The heavy chain is unchanged in all variants.
VH: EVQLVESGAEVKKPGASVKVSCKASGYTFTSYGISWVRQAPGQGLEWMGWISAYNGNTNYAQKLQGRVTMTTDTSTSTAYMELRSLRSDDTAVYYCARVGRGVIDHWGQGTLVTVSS
VL: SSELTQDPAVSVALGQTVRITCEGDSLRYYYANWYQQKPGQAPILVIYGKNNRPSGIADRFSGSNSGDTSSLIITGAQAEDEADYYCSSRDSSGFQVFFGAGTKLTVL

Substitutions are numbered in sequence along the VL above, starting at 1 (not Kabat).
The read-out is the apparent dissociation constant on a log10 scale (nM): the lower, the stronger.
Replicates are averaged; those with no signal do not enter the mean.
"nd" means that the variant was in the library but no mating with the target was seen in that replicate; the authors take this as a sign of poor binding, and no number exists.
Nonspecific signal, from three strains lacking the peptide, appeared in 28% of pairings of library AAYL52, centred on 3.91 (5% of these signals below 2.90); values are not corrected for it. Also given: how often the same scFv was detected with the empty control strains, with their mean in brackets.

changes	replicates, log10 nM	mean log10 Kd (nM)	signal with controls
L27K N51V R53K	nd / nd / nd	nd	1 of 9 (3.04)
Y31L N33Y S55R	4.55 / 3.02 / nd	3.79	4 of 9 (3.38)
E23H P54W S92V	nd / 2.66 / 2.49	2.57	2 of 9 (3.94)
L27D F95D Q96N	4.61 / nd / 2.89	3.75	4 of 9 (3.65)
N33Q N51M F98T	nd / nd / 3.53	3.53	2 of 9 (4.58)
D25V K50T R90K	3.40 / 2.84 / 2.87	3.04	6 of 9 (4.48)
L27T G49H N51K	3.91 / 3.43 / 3.41	3.58	1 of 9 (3.84)
Y31P A32W N33L	nd / 4.81 / 3.30	4.06	2 of 9 (3.53)
E23M G24W K50S	1.82 / 2.25 / 2.92	2.33	1 of 9 (3.66)
Y29Q F95A Q96V	2.64 / 3.36 / 2.01	2.67	1 of 9 (2.99)
G24R A32S G49V	nd / nd / 2.91	2.91	4 of 9 (4.82)
G24L D25G N52D	4.09 / 3.64 / 3.23	3.65	4 of 9 (3.80)
E23W R28N V97Y	2.63 / 3.07 / 4.19	3.30	4 of 9 (3.86)
Y31L S55D G94P	2.53 / 3.44 / 1.85	2.60	1 of 9 (3.61)
A32H N51F S93Q	nd / nd / nd	nd	0 of 9
R28Y N33F N51D	2.91 / 3.65 / 3.99	3.52	2 of 9 (3.21)
R28F N52T F98K	nd / nd / nd	nd	2 of 9 (4.38)
Y29I G49H K50Y	5.27 / 4.66 / nd	4.97	4 of 9 (3.54)
L27V V97D	nd / nd / nd	nd	1 of 9 (3.48)
S26V S89V	2.84 / 3.63 / 3.86	3.44	4 of 9 (3.52)
G24K K50N S55Y	2.63 / 3.04 / 2.64	2.77	0 of 9
L27N Y31F A32F	4.24 / 4.74 / nd	4.49	4 of 9 (3.89)
L27N N51M R53K	4.12 / nd / nd	4.12	0 of 9
A32L R53W S92F	4.66 / nd / 4.22	4.44	2 of 9 (4.03)
S55Q R90I F95S	2.44 / 2.38 / 1.89	2.24	3 of 9 (4.70)
Y29M N52E R90M	2.10 / 2.91 / 1.52	2.18	3 of 9 (3.19)
G24A R28V Y31C	3.60 / 3.09 / nd	3.35	8 of 9 (4.18)
N52T R53N S89M	4.80 / 4.93 / 3.97	4.57	2 of 9 (4.12)
K50Q N51S S93Y	2.78 / 2.88 / 1.59	2.42	3 of 9 (4.53)
S26A R28T S55V	3.11 / 2.61 / 2.68	2.80	4 of 9 (3.63)
A32Y N51D S92V	2.51 / 2.75 / 1.81	2.35	1 of 9 (3.39)